Values quoted from earlier work in patent US20110002851A1, “Cationic Colloidal Carriers for Delivery of Active Agents to the Blood-Brain Barrier in the Course of Neuroinflammatory Diseases” (MediGene AG, priority 2006, published 2011).

System: T cells
Settings: by its effect on MMP-9

B1: Interferon-beta: interferon beta, used for treatment of relapsing-remitting MS (protein, UniProt P01574 22-187, looked up)
Interferon beta: MSYNLLGFLQRSSNFQCQKLLWQLNGRLEYCLKDRMNFDIPEEIKQLQQFQKEDAALTIYEMLQNIFAIFRQDSSSTGWNETIVENLLANVYHQINHLKTVLEEKLEKEDFTRGKLMSSLHLKRYYGRILHYLKAKEYSHCAWTIVRVEILRNFYFINRLTGYLRN
Migration of T cells: inhibited
